Data from article PMC3254707 (Biochemistry, 2011).

Target: T1, PutA (proline utilization A) (Escherichia coli, UniProt P09546)
T1 sequence (P09546 1-1320): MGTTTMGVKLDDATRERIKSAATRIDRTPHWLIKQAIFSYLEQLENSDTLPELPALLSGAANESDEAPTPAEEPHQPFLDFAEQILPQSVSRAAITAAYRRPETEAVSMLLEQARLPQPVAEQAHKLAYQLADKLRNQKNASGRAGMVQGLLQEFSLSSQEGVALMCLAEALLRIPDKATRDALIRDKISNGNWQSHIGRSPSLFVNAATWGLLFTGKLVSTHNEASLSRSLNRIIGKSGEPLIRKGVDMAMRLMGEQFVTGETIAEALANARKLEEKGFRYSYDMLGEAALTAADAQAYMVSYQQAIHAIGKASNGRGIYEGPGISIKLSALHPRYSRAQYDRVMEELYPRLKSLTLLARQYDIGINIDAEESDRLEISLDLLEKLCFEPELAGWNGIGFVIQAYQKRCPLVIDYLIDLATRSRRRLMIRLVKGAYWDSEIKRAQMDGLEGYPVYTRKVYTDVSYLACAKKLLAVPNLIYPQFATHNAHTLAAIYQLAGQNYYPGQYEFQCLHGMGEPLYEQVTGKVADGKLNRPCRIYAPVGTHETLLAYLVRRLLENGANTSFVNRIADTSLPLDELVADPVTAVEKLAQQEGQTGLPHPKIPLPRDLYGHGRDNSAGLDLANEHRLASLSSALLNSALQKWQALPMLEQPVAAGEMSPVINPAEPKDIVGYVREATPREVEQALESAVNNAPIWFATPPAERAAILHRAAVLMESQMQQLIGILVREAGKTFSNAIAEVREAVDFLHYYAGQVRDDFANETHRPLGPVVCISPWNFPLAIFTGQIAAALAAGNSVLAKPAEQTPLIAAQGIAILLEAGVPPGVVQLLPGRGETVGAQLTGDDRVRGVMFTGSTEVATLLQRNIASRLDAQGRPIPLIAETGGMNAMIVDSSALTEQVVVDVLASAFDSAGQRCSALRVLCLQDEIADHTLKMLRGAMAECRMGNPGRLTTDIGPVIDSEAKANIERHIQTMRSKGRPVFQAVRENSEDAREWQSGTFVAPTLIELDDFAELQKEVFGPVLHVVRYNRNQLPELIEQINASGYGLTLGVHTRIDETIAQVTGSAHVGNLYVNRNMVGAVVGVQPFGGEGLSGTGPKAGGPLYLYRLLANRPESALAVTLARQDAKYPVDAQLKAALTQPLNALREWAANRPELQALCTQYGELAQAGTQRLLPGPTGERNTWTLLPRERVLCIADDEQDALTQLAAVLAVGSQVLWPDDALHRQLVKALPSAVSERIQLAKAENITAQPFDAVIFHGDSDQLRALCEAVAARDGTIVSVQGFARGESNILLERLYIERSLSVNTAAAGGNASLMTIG
Test: anaerobic stopped-flow, A476 of FAD, koff/kon
Assay type: binding

Kd: 13.5 mM
SMILES: O=C(O)[C@@H]1CCCO1 [THFA, L-tetrahydro-2-furoic acid]
